System: human C3A liver cell cultures
Test: Microarray differential expression of cDNAs in treated human C3A liver cell cultures
Assay type: cell-based
Details: change vs untreated C3A cells
From the text: Incyte clones represent template sequences derived from the LIFESEQ GOLD assembled human sequence database (Incyte Genomics). In cases where more than one clone was available for a particular template, the 5′-most clone in the template was used on the microarray. The GENEALBUM GEM series 1-6 microarrays (Incyte Genomics) contain 52,616 array elements which represent 17,472 annotated clusters and 35,144 unannotated clusters. The HUMAN GENOME GEM series 1-3 microarrays (Incyte Genomics) contain 28,626 array elements which represent 10,068 annotated clusters and 18,558 unannotated clusters. For the UNIGEM series microarrays (Incyte Genomics), Incyte clones were mapped to non-redundant Unigene clusters (Unigene database (build 46), NCBI; Shuler (1997) J Mol Med 75:694-698), and the 5′ clone with the strongest BLAST alignment (at least 90% identity and 100 bp overlap) was chosen, verified, and used in the construction of the microarray. The UNIGEM V microarray (Incyte Genomics) contains 7075 array elements which represent 4610 annotated genes and 2,184 unannotated clusters.
To construct microarrays, cDNAs were amplified from bacterial cells using primers complementary to vector sequences flanking the cDNA insert. […] Amplified cDNAs were then purified using […]-400 columns (APB). Purified cDNAs were immobilized on polymer-coated glass slides. […]

In the case of CC(C)OC(=O)C(C)(C)Oc1ccc(C(=O)c2ccc(Cl)cc2)cc1 [Fenofibrate, fenofibrate], the “expression level of cDNA clone 1998269” value is reported as 2.31.

Source: patent publication US6727066B2, “Genes expressed in treated human C3A liver cell cultures” (Incyte Corporation, priority 2000, dated 2004)
